Laboratory results taken from ChEMBL document CHEMBL1122013, “Inhibitors of gastric acid secretion: 3,4-diamino-1,2,5-thiadiazole 1-oxides and 1,1-dioxides as urea equivalents in a series of histamine H2-receptor antagonists” (J Med Chem, 1982).

The chains behind the UniProt entries cited, without tags or fusion partners.
UniProt P47747, whole entry: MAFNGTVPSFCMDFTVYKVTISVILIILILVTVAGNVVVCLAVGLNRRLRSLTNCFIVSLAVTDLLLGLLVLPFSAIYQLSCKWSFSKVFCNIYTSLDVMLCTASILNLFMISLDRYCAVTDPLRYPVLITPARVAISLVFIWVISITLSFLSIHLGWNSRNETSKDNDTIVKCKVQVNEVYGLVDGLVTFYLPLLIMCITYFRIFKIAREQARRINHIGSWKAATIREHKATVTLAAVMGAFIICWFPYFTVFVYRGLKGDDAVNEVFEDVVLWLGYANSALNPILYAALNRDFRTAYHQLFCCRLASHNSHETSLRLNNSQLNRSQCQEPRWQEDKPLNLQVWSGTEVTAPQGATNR

Assays:
[1] = biological target: Histamine H2 receptor (Cavia porcellus, UniProt P47747); experiment: In vitro inhibition of Histamine H2 receptor by measuring its ability to block the histamine-stimulated adenylate cyclase of guinea pig hippocampal homogenate; assay type: tissue-based, Hippocampus
[2] = biological target: Histamine H2 receptor (Cavia porcellus) (UniProt P47747); experiment: In vitro inhibition of Histamine H2 receptor by measuring its ability to block dimaprit-stimulated chronotropic response of guinea pig atrium strips; assay type: functional, tissue-based; details: Cardiac atrium

## CN/C(=N/CCSCc1nc[nH]c1C)NC#N [CIMETIDINE]
[1]
  Ki: 501 nM

## CN/C(=N\CCSCc1nc[nH]c1C)NC#N [CIMETIDINE]
[2]
  -Log KB: 6.31
